Measurements: PubChem BioAssay AID602244 (Sanford-Burnham Center for Chemical Genomics, 2012)
The entries are a selection whose mix differs from that of the whole data set. Active and inactive are the calls of the source. No stated cut-off is given here; in the data, active means inhibition above about 34% (passing the limit was not always enough); inactive means the rest.

Sequences of proteins named here, by UniProt entry; tags and fusion partners are left off. A change or cut given only in a name is not applied to a line headed by its entry.
UniProt O00574: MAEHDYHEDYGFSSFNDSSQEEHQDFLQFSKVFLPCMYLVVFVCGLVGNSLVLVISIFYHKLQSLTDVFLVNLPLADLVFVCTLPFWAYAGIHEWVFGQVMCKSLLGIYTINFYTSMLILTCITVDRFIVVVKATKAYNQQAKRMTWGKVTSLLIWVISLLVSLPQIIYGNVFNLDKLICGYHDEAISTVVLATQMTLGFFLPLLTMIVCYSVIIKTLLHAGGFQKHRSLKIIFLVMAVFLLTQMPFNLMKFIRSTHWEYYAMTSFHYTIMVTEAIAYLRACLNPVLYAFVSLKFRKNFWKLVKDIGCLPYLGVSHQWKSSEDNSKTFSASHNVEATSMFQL

molecular target: C-X-C chemokine receptor type 6 (Homo sapiens) (UniProt O00574); test: CXCR6 receptor inhibitors, primary screen, cell-based, beta-arrestin, luminescence, CHO-K1 PathHunter, 1536-well (AID 602244); settings: at 20 µM, hits give high values;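 further: antagonist mode with CXCL16 agonist at 10 nM final; 0% = 10 nM CXCL16 with DMSO and 100% = unstimulated wells without agonist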

| SMILES | inhibition |
| --- | --- |
| O=[N+]([O-])c1ncn(CCn2ncnc2[N+](=O)[O-])n1 | inactive: -14.7% |
| CC(C)(C)C(=O)NC(Sc1ccncn1)C(Cl)(Cl)Cl (stereo not given) | inactive: -10.5% |
| O=C(O)CNc1ccc([As](=O)(O)O)cc1 | inactive: -3.1% |
| O=[N+]([O-])c1cccc(NC2=NCC(CBr)S2)c1 (stereo not given) | inactive: 4.8% |
| COC(=O)C1(C)COP(=O)(Nc2ccccc2)OC1 (stereo not given) | inactive: 7.6% |
| O=P1(N(CCCl)CCCl)OCCCS1 (stereo not given) | inactive: 3.8% |
| O=C(Nc1cc([As](=O)(O)O)ccc1O)c1ccccc1 | inactive: 12.9% |
| CCN(/C(=N/P(=O)(N1CCOCC1)N1CCOCC1)N1CCOCC1)c1ccc(OC)cc1 | inactive: -0.7% |
| C[N+]1=C2C=CC=CC=C2SC12C([N+](=O)[O-])=CC([N+](=O)[O-])=C[C-]2[N+](=O)[O-] (stereo not given) | active: 82.5% |
| Nc1ccc([As](=O)(O)c2ccc(N)cc2)cc1 | inactive: 7% |
| c1cc(-c2nn[nH]n2)ccc1-c1nn[nH]n1 | inactive: 4.7% |
| CC1CCN(C(=O)Oc2c(Cl)cc(Cl)c3cccnc23)CC1 | inactive: -15% |
| CN(C)C(=O)OCCc1n(C)cc[n+]1C | inactive: 1.8% |
| CC(C)=N/N=C(\N)N[N+](=O)[O-] | inactive: 6.2% |
| CC(C)c1nc(Nc2ccccc2)n(P(=O)(N(C)C)N(C)C)n1 | inactive: 5.8% |
| COc1ccc(C2=NCC(CBr)S2)cc1 (stereo not given) | inactive: 1.8% |
| O=[N+]([O-])c1cc([N+](=O)[O-])c(CCNc2ccccc2)c([N+](=O)[O-])c1 | inactive: 3.7% |
| CCc1nc2c(n1)c1c(non1O)c1c2no[n+]1[O-] | inactive: 5.6% |
| Cc1ccc(NP(=O)(Oc2ccccc2)Oc2ccccc2)nc1 | inactive: 6.9% |
| CC(=O)N1C2C3N(C(C)=O)C1C1N(C(C)=O)C(C(N1C(C)=O)N3C(C)=O)N2C(C)=O | inactive: -12.9% |
| O=[N+]([O-])c1cccc2n[nH]nc12 | inactive: 1% |
| O=C(NC(Sc1ccncn1)C(Cl)(Cl)Cl)c1ccccc1 (stereo not given) | inactive: -13.6% |

| SMILES | inhibition |
| --- | --- |
| Oc1ccccc1CNc1ccccn1 | inactive: -1.1% |
| CC(C)CC(=O)NC(Sc1ccc(Cl)cc1)C(Cl)(Cl)Cl (stereo not given) | inactive: -2.3% |
| Nc1cc(N)c2nonc2c1[N+](=O)[O-] | inactive: -7.2% |
| O=[N+]([O-])C1C(O)C(O)C([N+](=O)[O-])C(O)C1O (stereo not given) | inactive: 4% |
| Cc1ccc(N/C(=N/P(=O)(N2CCOCC2)N2CCOCC2)N2CCOCC2)cc1 | inactive: 10.7% |
| CN(C(=O)Cc1ccc(Cl)c(Cl)c1)[C@H]1CCCC[C@H]1N1CCCC1 | inactive: 10.2% |
| NC(=O)c1cc([N+](=O)[O-])cc([N+](=O)[O-])c1N | inactive: -7.2% |
| Clc1ccc(Cl)c(NC2=NCC(CBr)S2)c1 (stereo not given) | inactive: -5.8% |
| CN1CCCC(OC(=O)C(c2ccccc2)c2ccccc2)C1 (stereo not given) | inactive: 11% |
| Cc1ccc(OP(=O)(Nc2nccs2)Oc2ccc(C)cc2)cc1 | inactive: -3.4% |
| COc1ccccc1OP(=O)(Nc1ccc(C)cn1)Oc1ccccc1OC | inactive: 4.6% |
| Nc1cccc2ccc([As](=O)(O)O)cc12 | inactive: -6.6% |
| CCN(N=Nc1nonc1N)c1nonc1N | inactive: 5.2% |
| CN(C)P(=O)(N(C)C)n1c(Nc2ccccc2)nnc1-c1ccccc1 | inactive: -4% |
| O=P(Nc1nc2ccc(Cl)cc2s1)(c1ccccc1)c1ccccc1 | inactive: 8.6% |
| CCCC1OP(N)(=O)OCC1CC (stereo not given) | inactive: -1.4% |
| O=C(O)c1ccccc1[As](=O)(O)O | inactive: -5.3% |
| CC(=O)Nc1ccc([As](=O)(O)O)cc1 | inactive: -10.5% |
| CN(C(=O)Cc1ccc(Cl)c(Cl)c1)[C@H]1CCCC[C@@H]1N1CCCC1 | inactive: 6.3% |
| Cc1ccc(NP(=O)(Oc2ccccc2F)Oc2ccccc2F)nc1 | inactive: -1.6% |
| CCOP(=O)(Nc1ccccc1)OCC | inactive: -2.6% |
| Cc1cc(SC(NC(=O)c2ccc(F)cc2)C(Cl)(Cl)Cl)ncn1 (stereo not given) | inactive: -6.4% |

| SMILES | inhibition |
| --- | --- |
| CCC(=O)N1C2C3N(C(=O)CC)C1C1N(C(=O)CC)C(C(N1C(=O)CC)N3C(=O)CC)N2C(=O)CC | inactive: -8.7% |
| O=C(OC1CN2CCC1CC2)c1ccccc1 (stereo not given) | inactive: 2.2% |
| Cc1ccc(OP(=O)(Nc2ccccn2)Oc2ccc(C)cc2)cc1 | inactive: -6.5% |
| CC(=O)NC(SC(=S)N(CC(C)C)CC(C)C)C(Cl)(Cl)Cl (stereo not given) | inactive: 23.8% |
| COC(=O)c1cc2c(s1)N=C(c1ccccc1)N(C)P2(=O)N1CCOCC1 (stereo not given) | inactive: -13.6% |
| CN(C)C(=O)Oc1noc2ccccc12 | inactive: -1.9% |
| O=c1c2cc([N+](=O)[O-])ccc2[nH]c2c([N+](=O)[O-])cc([N+](=O)[O-])cc12 | active: 45.2% |
| Cc1ccccc1OP(=O)(Nc1ccccn1)Oc1ccccc1C | inactive: 5.3% |
| CC(NC(=O)COC(=O)C(O)(c1ccccc1)c1ccccc1)c1ccccc1 (stereo not given) | inactive: -2.7% |
| Cc1ccc(NP(=O)(Oc2cccc(C)c2)Oc2cccc(C)c2)nc1 | inactive: 1.7% |
| c1ccc(-c2nn[nH]n2)c(-c2nn[nH]n2)c1 | inactive: 7.4% |
| O=C(NC1CCS(=O)(=O)C1)NP(=S)(Oc1ccccc1)Oc1ccccc1 (stereo not given) | inactive: 4% |
| CCNC(=S)/N=C(\N)N[N+](=O)[O-] | inactive: 8.3% |
| O=P1(N(CCCl)CCCl)OCCC2CCCCN21 (stereo not given) | inactive: -4.3% |
| C[C@@H]1C=CCP(=O)(Oc2ccccc2)O1 (stereo not given in full) | inactive: 1.9% |
| C[C@H]1OP(=O)(Oc2ccccc2)C[C@@H]2O[C@@H]21 (stereo not given in full) | inactive: -4.8% |
| Cc1ccccc1CN(C)C(=O)COC(=O)C(O)(c1ccccc1)c1ccccc1 | inactive: 2.8% |
| COC(=O)C1(C)COP(=O)(NCc2ccccc2)OC1 (stereo not given) | inactive: 4.7% |
| N#C/C(=C\c1ccc(N(CCBr)CCBr)cc1)C(N)=O | inactive: -2.2% |
| CC(=O)c1ccc(N2CC2c2ccncc2)cc1 (stereo not given) | inactive: -4.6% |
| CC(=O)Nc1ccc(Oc2c([N+](=O)[O-])cc([N+](=O)[O-])cc2[N+](=O)[O-])cc1 | inactive: 9.7% |
